Publication PMC3602246 (BMC Pharmacology & Toxicology, 2013)

Chains of the proteins cited; added tags and fusions are not shown.
UniProt P35372, whole entry: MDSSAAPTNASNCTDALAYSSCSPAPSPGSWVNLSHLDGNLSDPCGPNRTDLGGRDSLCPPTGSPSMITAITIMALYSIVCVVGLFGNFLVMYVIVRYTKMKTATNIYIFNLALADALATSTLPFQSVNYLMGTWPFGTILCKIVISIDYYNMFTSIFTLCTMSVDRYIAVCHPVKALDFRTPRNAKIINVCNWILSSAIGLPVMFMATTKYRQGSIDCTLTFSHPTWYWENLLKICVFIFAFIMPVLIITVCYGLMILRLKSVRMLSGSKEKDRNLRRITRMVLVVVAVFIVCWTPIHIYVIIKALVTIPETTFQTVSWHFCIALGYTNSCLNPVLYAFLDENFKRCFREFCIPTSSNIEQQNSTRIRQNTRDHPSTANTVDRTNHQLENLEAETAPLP

Assays:
[1] = target: T1, human mu opioid receptor (MOR1) (Homo sapiens, UniProt P35372); assay type: cell-based
T1 construct: FLAG; expressed in transfected cells

DOR = conditions: read-out: Ki, affinity binding to the DOR; cited from earlier work
KOR = conditions: read-out: Ki, affinity binding to the KOR; cited from earlier work

In the case of Dynorphin A (1–13), the “DMR agonist activity classification, MOR” value [1] is reported as “Full agonist”.

In the case of `COC(=O)[C@@H]1C[C@H](OC(C)=O)C(=O)[C@H]2[C@@]1(C)CC[C@H]1C(=O)O[C@H](c3ccoc3)C[C@]21C` [Salvinorin A], the Ki (DOR) is given as over 1000 nM.

For `Oc1ccc2c3c1O[C@H]1c4[nH]c5ccccc5c4C[C@@]4(O)[C@@H](C2)N(CC2CC2)CC[C@]314` [Naltrindole], the Ki (KOR) is given as 66 nM.
